The values below are quoted from earlier work in PMC6430500, “3-Fluoro-4-hydroxyprolines: Synthesis, Conformational Analysis, and Stereoselective Recognition by the VHL E3 Ubiquitin Ligase for Targeted Protein Degradation” (Journal of the American Chemical Society, 2018).

Protein sequences, listed by entry. Tags and fused reporters are not part of them. Residues count along the entry.
UniProt P40337, 54-213: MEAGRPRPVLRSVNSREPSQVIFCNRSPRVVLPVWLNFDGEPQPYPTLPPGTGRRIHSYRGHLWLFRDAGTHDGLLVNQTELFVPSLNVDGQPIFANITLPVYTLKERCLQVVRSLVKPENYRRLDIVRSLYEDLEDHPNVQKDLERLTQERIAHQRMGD

This series has as its target VBC and Brd4BD2 (Homo sapiens, UniProt O60885+P40337). Particulars: values previously measured; cited from earlier work.

Take `Cc1ncsc1-c1ccc(CNC(=O)[C@@H]2C[C@@H](O)CN2C(=O)[C@@H](NC(=O)COCCOCCOCCNC(=O)C[C@@H]2N=C(c3ccc(Cl)cc3)c3c(sc(C)c3C)-n3c(C)nnc32)C(C)(C)C)cc1` [MZ1, reference compound]: the “α (cooperativity)” value is given as 9.5–17.6.
